Reference: ChEMBL document CHEMBL1201862, “PubChem BioAssay data set” (2004)

By UniProt entry, the sequences of proteins in these tests, tags left out. Where a name states a change or a piece, a line headed by the entry shows the natural chain unless it says otherwise.
UniProt P41145: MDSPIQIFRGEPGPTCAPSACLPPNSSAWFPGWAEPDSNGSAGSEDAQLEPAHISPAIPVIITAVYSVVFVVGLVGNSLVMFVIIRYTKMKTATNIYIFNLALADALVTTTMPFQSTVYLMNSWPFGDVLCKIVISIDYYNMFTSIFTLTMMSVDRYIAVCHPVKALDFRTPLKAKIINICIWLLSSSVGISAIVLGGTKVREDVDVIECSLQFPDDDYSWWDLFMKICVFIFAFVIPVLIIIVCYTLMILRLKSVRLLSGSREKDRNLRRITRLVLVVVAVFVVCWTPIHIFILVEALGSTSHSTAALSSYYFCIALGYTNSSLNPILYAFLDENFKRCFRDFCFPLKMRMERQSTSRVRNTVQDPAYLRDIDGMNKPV

Assays:
[1] = cells; format: functional
[2] = molecular target: Kappa-type opioid receptor (Homo sapiens, UniProt P41145); experiment: SAR analysis of small molecule antagonists of the kappa opioid receptor via a luminescent beta-arrestin assay - Set 3. [Related pubchem assays (depositor defined):AID1777, AID1778, AID1785, AID1786, AID1966, AID2133, AID2136, AID2285, AID2495]; format: functional

SMILES | IC50 [1] | IC50 [2]
O=C(Nc1ccc(Br)cn1)c1ccc([N+](=O)[O-])o1 | active: 2.14 µM | –
Cc1ccc(S(=O)(=O)NCc2ccc(C(=O)NCCN(Cc3ccc(Br)cc3)C(C)C)cc2)cc1 | – | active: 0.662 µM

Active and inactive are the calls of the source.
